Assay results taken from article PMC4113800 (Marine Drugs, 2014).

Tested on: BCRP
Details: 11 at 30 μM for 24, 48 and 72 h; NCI-H460/MX20

COC(=O)c1c(-c2ccc(O)cc2)c(-c2ccc(O)cc2)cn1CC(=O)c1ccc(OC)cc1 [Compound 11, lamellarin O]
BCRP levels (expression, Western blotting): not significantly changed
